An excerpt weighted towards active compounds, which were near 1.5% of everything screened.
PGC1a acetyl inh: inhibitors of PGC1a acetylation signal, primary screen, cell-based, U2OS, AlphaScreen, inhibitor mode. AID 651687, 2012. inhibition, % at 15.6 µM. AlphaScreen anti-acetyl-lysine; with virally co-expressed GCN5 acetyltransferase. hit rate 0.17% among 350,000;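 active means every replicate shows inhibition of at least 40%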
FN deposition inh: inhibitors of fibronectin matrix deposition, primary screen, AH1F cells, Alexa488-fibronectin fluorescence, plate reader | AH1F fibroblasts, overnight | inhibition, % at 12.6 µM | hit rate 0.086% among 350,000;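 active means mean inhibition across replicates of 30% or more, regardless of how many single replicates reach that level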
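Schedule: 1 h cell adhesion before compound, then overnight fibronectin incubation; test system: AH1F fibroblast monolayer depositing Alexa488-labelled fibronectin into matrix; quantity: 10000 AH1F cells per well; probe or stimulus: fluorescent fibronectin at 24 nM final; signal: fluorescence, ex 485 nm, em 525 nm; evaluation: percent inhibition as loss of matrix-bound fibronectin fluorescence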
HIV Env fusion: inhibitors of HIV-1 Env-driven cell-cell fusion, primary screen, HeLa-JRFL effector, CEM21 target cells, luciferase; inhibition, % at 12.3 µM; hit rate 1.1% among 360,000;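 active means mean replicate inhibition score of at least 50 and every replicate individually at or above 50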
Cneo AK release: Cryptococcus neoformans cell lysis inducers, primary screen, AK release luminescence, single concentration; C. neoformans lysis, adenylate kinase release luminescence, 4 h; normalised: neutral wells 0, clomiphene wells 100; lysis activity, % at 15 µM; hit rate 0.2% among 360,000; AID 651654, 2012;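 active means mean lysis activity across replicates of at least 80%, whatever share of replicates individually reach that level; inactive means mean lysis activity below 80%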
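Signal: Adenylate kinase release luminescence | Assay system: Log-phase Cryptococcus neoformans yeast cells | Input: Cells at 5 × 10^6 per mL | Buffer or medium: Fresh YPD growth medium | Compound: Single dose | Schedule: Static 4 h at 37 °C with compound, 1 h detection | Controls: Clomiphene | Read-out: Luminescence rise reflecting yeast cell lysis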
miR122 inh: miR-122 Renilla sensor signal increase in Huh7, primary screen, miR-122 inhibitor project, cell-based, single point, plate reader. hit rate 0.3% among 340,000. Huh7 miR-122 Renilla luciferase sensor, 48 h; neutral wells = 0, positive control = 100. activation (reporter increase), % at 12.5 µM;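 active means mean replicate activation score at least 90 and every replicate individually at or above 90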;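 further: higher luciferase means less miR-122 activity so hits act as miR-122 inhibitors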
UUG fidelity: alters start codon recognition fidelity in yeast. S. cerevisiae UUG-firefly luciferase reporter, luminescence/redox ratio. AID 602363. activity score, % at 18.7 µM. hit rate 0.13% among 350,000;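 active = replicate mean at a twofold rise or more, about +100% in these data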;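 note: firefly luciferase made from a UUG start codon reports start codon fidelity; reporter light over untreated wells divided by growth signal over untreated wells; some hits fall short of that in this replicate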
Each line names hits and unclear results; the compound was inactive in the other large screens; [ ] = remark or other dose.

Cc1nc(C(C)N(C)Cc2nc(-c3ccc4c(c3)OCO4)no2)c(C)s1 (stereo not given)	PGC1a acetyl inh 97.1 (no result: Cneo AK release, UUG fidelity)
COC(=O)c1c(Cc2ccccc2Cl)c[nH]c1C	none
Cc1c(C(=O)NC2CCCCC2C)oc2ccccc12 (stereo not given)	none (no result: PGC1a acetyl inh, miR122 inh)
CCCC[C@@H]1CNCCN1CCc1cc(C(F)(F)F)cc(C(F)(F)F)c1	none
FC(F)(F)c1cc(CCN2CCNC[C@@H]2CC2CCCCC2)cc(C(F)(F)F)c1	HIV Env fusion 85.4
COCCNC(=O)C[C@H]1C[C@H]2c3cc(NC(=O)Cc4ccncc4)ccc3O[C@H]2[C@H](CO)O1	none (no result: FN deposition inh)
O=C(C[C@@H]1C[C@@H]2c3cc(NC(=O)Cc4ccncc4)ccc3O[C@@H]2[C@H](CO)O1)NCc1ccncc1	none (no result: HIV Env fusion)
CCCNC(=O)C[C@H]1C[C@H]2c3cc(NC(=O)CN(C)C)ccc3O[C@H]2[C@H](CO)O1	HIV Env fusion 88.8[16.7 µM]
CCCNC(=O)C[C@@H]1C[C@H]2c3cc(NC(=O)Cc4ccncc4)ccc3O[C@H]2[C@H](CO)O1	HIV Env fusion 97.9[16.7 µM]
CCCNC(=O)C[C@@H]1C[C@H]2c3cc(NC(=O)Cc4ccncc4)ccc3O[C@H]2[C@@H](CO)O1	HIV Env fusion 93.3[16.7 µM]
CCCNC(=O)C[C@@H]1C[C@H]2c3cc(NC(=O)CN(C)C)ccc3O[C@H]2[C@@H](CO)O1	none
Cc1nc(CN2CCN(S(=O)(=O)c3c(Cl)cc(Br)cc3Cl)CC2)cs1	none (no result: PGC1a acetyl inh, FN deposition inh, Cneo AK release, miR122 inh, UUG fidelity)
Cc1cccc(NC(=O)CSCC(=O)Nc2cc(Cl)ccc2N2CCOCC2)c1	HIV Env fusion 71.8 (no result: PGC1a acetyl inh, FN deposition inh)
Cc1ccc(Cc2c(-c3cccc(Cl)c3)nc3ccc(C)cn23)cc1	HIV Env fusion 61.8
O=C(Nc1ccc([N+](=O)[O-])cc1)Nc1ccc(Cl)cc1F	HIV Env fusion 66.0 (no result: Cneo AK release, miR122 inh, UUG fidelity)
COC(=O)c1cc(-c2ccc(Cl)cc2Cl)n[nH]1	none
COC(=O)C[C@H]1CC[C@H]2[C@@H](COC[C@H](O)CN2S(=O)(=O)c2ccccc2OC)O1	none
Cc1ccc(CN2CC(N3CCCCC3)CS2(=O)=O)cc1 (stereo not given)	none
Cc1ccc(CN2CC(N3CCCC3)CS2(=O)=O)cc1 (stereo not given)	HIV Env fusion 59.6
CC1(C)NC(=O)N(CCOCCOc2cccc(Oc3ccccc3)c2)C1=O	HIV Env fusion 60.2 (no result: FN deposition inh)
CC(=O)NC(=S)Nc1ccc(NC(=S)NC(=O)c2cccs2)cc1	none (no result: FN deposition inh)
O=C1CCCCC1Sc1nnc(-c2ccc3c(c2)OCO3)o1 (stereo not given)	HIV Env fusion 67.6 (no result: Cneo AK release, miR122 inh, UUG fidelity)
COc1cccc(C(=O)/C=C/Nc2ccc(S(=O)(=O)Nc3nc(C)cc(C)n3)cc2)c1	none (no result: PGC1a acetyl inh, Cneo AK release, miR122 inh, UUG fidelity)
Cc1ccc(CNC(=O)C2CCCN(C(=O)Nc3ccc(F)cc3)C2)cc1 (stereo not given)	none
CCC(C)NC(=O)C1CCCN(C(=O)Nc2ccc(F)cc2)C1 (stereo not given)	HIV Env fusion 56.7
O=C(c1cnccn1)N1CC(=O)N2[C@H](CO)[C@@H](c3ccc(C#CC4CCCCC4)cc3)[C@@H]2C1	none (no result: HIV Env fusion, Cneo AK release, miR122 inh, UUG fidelity)
O=C(CCCCCN1C(=O)c2cccc([N+](=O)[O-])c2C1=O)NCCc1ccccc1	none
CC(C)CC#Cc1ccc2c(c1)O[C@@H](CN(C)S(=O)(=O)c1cccc(F)c1)[C@@H](C)CN([C@@H](C)CO)S2(=O)=O	HIV Env fusion 77.5[16.7 µM] (no result: PGC1a acetyl inh, FN deposition inh)
C[C@H]1CN([C@@H](C)CO)S(=O)(=O)c2ccc(-c3cccc(F)c3)cc2O[C@@H]1CN(C)S(=O)(=O)c1ccc(F)cc1	none
CC(C)CC#Cc1ccc2c(c1)O[C@H](CN(C)S(=O)(=O)c1ccc(F)cc1)[C@H](C)CN([C@@H](C)CO)S2(=O)=O	HIV Env fusion 61.3[16.7 µM]
CCCC#Cc1ccc2c(c1)O[C@@H](CN(C)S(=O)(=O)c1cccc(F)c1)[C@@H](C)CN([C@H](C)CO)S2(=O)=O	HIV Env fusion 63.6[16.7 µM] (no result: FN deposition inh)

High-throughput results from PubChem BioAssay.
